From ChEMBL document CHEMBL3414527, “Engineering potent and selective analogues of GpTx-1, a tarantula venom peptide antagonist of the Na(V)1.7 sodium channel” (J Med Chem, 2015)

Sequences of proteins named here, by UniProt entry; tags and fusion partners are left off.
UniProt Q15858, whole entry: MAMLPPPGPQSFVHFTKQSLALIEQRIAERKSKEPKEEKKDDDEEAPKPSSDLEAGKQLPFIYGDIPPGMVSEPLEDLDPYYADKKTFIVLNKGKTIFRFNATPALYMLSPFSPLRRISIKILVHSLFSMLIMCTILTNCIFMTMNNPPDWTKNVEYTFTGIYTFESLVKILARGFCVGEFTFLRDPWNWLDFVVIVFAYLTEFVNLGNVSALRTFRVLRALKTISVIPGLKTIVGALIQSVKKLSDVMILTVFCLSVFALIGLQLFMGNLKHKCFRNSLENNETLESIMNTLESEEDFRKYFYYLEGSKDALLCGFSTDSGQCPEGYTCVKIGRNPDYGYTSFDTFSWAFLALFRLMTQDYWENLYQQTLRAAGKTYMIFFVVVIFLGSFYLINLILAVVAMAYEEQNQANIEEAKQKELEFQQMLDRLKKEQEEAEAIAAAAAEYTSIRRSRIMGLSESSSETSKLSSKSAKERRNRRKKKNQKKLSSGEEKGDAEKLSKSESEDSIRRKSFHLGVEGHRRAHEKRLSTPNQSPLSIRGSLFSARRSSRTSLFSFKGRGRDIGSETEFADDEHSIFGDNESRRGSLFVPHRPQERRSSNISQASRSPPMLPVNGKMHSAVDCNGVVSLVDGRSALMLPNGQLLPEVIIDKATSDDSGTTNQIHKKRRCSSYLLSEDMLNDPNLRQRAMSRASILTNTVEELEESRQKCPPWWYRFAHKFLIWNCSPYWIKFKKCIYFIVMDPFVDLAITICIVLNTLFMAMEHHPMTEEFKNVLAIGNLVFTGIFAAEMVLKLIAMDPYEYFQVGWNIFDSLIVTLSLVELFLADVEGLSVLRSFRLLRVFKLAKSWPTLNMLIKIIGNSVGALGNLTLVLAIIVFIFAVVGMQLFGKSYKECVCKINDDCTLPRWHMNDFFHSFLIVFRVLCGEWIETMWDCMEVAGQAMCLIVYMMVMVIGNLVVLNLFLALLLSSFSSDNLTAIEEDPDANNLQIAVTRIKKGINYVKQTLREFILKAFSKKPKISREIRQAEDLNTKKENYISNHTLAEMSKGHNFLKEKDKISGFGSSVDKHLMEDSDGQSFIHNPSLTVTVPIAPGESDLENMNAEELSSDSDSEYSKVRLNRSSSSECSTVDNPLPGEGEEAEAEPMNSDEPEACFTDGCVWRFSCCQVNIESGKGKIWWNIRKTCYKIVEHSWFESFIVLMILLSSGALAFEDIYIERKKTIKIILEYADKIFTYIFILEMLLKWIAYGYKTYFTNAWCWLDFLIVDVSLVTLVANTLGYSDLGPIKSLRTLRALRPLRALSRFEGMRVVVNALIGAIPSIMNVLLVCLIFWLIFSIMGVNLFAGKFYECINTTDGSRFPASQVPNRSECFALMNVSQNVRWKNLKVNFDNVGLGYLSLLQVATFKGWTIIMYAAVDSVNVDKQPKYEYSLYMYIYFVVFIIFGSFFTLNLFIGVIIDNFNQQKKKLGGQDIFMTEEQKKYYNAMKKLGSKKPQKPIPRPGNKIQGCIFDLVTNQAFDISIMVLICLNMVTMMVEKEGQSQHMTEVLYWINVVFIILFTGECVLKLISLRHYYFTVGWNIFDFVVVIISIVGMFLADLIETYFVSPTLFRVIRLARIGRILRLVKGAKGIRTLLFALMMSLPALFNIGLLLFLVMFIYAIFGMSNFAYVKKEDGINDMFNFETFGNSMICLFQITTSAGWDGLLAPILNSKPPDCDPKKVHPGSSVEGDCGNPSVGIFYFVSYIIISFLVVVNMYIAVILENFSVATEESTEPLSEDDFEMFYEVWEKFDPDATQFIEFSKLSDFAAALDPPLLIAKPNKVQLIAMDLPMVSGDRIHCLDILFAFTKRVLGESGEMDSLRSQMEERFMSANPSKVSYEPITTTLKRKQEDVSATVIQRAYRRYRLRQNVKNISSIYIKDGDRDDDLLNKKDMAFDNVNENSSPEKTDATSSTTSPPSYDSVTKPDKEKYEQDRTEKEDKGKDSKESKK
UniProt Q14524, whole entry: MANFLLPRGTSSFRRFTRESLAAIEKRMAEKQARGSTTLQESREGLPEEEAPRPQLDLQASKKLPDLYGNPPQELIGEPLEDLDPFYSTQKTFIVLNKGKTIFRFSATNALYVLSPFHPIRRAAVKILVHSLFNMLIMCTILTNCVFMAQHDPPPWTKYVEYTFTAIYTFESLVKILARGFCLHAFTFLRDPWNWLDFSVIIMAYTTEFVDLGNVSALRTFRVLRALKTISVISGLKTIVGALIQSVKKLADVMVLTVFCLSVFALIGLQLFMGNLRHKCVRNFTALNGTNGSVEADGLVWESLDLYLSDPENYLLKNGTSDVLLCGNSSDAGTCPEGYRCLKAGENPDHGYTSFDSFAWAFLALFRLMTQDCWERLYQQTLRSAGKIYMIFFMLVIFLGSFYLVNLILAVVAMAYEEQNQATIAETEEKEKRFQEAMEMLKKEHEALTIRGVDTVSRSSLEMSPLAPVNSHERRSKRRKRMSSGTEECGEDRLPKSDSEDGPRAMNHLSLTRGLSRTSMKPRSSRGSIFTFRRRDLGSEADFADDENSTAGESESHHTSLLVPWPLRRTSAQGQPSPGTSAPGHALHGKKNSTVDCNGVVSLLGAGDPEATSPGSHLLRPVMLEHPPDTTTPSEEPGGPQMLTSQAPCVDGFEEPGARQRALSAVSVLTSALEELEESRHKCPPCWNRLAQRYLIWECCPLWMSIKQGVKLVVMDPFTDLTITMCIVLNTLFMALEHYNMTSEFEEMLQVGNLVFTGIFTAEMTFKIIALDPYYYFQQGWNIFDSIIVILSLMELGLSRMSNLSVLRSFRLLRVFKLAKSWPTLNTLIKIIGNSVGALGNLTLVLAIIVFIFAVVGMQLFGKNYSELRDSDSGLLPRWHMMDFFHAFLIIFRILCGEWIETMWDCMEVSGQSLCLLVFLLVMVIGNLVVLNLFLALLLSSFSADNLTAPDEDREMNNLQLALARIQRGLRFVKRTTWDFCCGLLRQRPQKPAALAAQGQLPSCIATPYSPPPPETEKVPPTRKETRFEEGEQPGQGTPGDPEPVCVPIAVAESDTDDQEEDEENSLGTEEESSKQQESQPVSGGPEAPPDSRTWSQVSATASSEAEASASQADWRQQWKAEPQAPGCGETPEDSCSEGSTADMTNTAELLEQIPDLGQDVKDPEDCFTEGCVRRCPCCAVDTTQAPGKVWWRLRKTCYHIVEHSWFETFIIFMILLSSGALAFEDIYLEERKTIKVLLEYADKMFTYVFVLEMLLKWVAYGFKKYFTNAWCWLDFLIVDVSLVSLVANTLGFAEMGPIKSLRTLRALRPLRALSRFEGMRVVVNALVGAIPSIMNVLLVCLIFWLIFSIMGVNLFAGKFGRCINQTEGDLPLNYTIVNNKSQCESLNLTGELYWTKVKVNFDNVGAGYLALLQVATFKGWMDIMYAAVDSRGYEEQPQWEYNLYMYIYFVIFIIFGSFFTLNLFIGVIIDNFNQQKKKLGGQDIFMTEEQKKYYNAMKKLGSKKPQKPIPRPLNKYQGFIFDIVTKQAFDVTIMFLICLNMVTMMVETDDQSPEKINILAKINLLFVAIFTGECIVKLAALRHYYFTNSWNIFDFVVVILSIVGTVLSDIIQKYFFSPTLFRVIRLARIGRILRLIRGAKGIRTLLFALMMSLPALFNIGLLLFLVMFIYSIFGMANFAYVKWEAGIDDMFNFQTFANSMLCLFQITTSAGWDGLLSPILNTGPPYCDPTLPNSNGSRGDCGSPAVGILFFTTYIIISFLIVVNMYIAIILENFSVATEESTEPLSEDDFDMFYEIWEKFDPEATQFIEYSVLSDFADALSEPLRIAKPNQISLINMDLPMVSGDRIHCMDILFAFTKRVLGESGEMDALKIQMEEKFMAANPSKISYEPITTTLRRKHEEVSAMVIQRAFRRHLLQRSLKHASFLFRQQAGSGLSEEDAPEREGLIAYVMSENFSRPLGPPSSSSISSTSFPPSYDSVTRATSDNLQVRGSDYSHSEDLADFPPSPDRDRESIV

What was measured:
[1] = molecular target: Sodium channel protein type 9 subunit alpha (Homo sapiens, UniProt Q15858); assay: Inhibition of human NaV1.7 at -140 mV holding potential by whole-cell patch clamp assay
[2] = molecular target: Sodium channel protein type 5 subunit alpha (Homo sapiens, UniProt Q14524); assay: Inhibition of human NaV1.5 at -140 mV holding potential by whole-cell patch clamp assay

| SMILES | IC50 [1] [nM] | IC50 [2] [nM] |
| --- | --- | --- |
| CC[C@H](C)[C@@H]1NC(=O)[C@@H]2CSSC[C@@H]3NC(=O)[C@H](C(C)C)NC(=O)[C@H](CC(C)C)NC(=O)[C@H](CC(N)=O)NC(=O)[C@@H]4CCCN4C(=O)[C@H](CCCNC(=N)N)NC(=O)[C@H](CSSC[C@H](NC(=O)[C@@H](N)CC(=O)O)C(=O)N[C@@H](CC(C)C)C(=O)NCC(=O)N[C@@H](C)C(=O)N[C@@H](Cc4ccccc4)C(=O)N[C@@H](CCCNC(=N)N)C(=O)N[C@@H](CCCCN)C(=O)N2)NC(=O)[C@H](CSSC[C@@H](C(=O)N[C@@H](CCCCN)C(=O)N[C@@H](Cc2ccc(O)cc2)C(=O)N[C@H](C(=O)N[C@@H](Cc2ccccc2)C(N)=O)C(C)C)NC(=O)[C@H](Cc2c[nH]c4ccccc24)NC(=O)[C@H](CCCNC(=N)N)NC(=O)[C@H](Cc2cnc[nH]2)NC(=O)[C@H]([C@@H](C)O)NC(=O)[C@H](CCCNC(=N)N)NC(=O)[C@H](CO)NC3=O)NC(=O)[C@H](CCCCN)NC(=O)[C@H](CC(=O)O)NC(=O)[C@H](CC(N)=O)NC(=O)[C@H](CC(=O)O)NC(=O)[C@@H]2CCCN2C1=O | 11 | > 10000 |
| CC[C@H](C)[C@@H]1NC(=O)[C@@H]2CSSC[C@@H]3NC(=O)[C@H](C(C)C)NC(=O)[C@H](CC(C)C)NC(=O)[C@H](CC(N)=O)NC(=O)[C@@H]4CCCN4C(=O)[C@H](CCCNC(=N)N)NC(=O)[C@H](CSSC[C@H](NC(=O)[C@@H](N)CC(=O)O)C(=O)N[C@@H](CC(C)C)C(=O)NCC(=O)N[C@@H](C)C(=O)N[C@@H](CC(C)C)C(=O)N[C@@H](CCCNC(=N)N)C(=O)N[C@@H](CCCCN)C(=O)N2)NC(=O)[C@H](CSSC[C@@H](C(=O)N[C@@H](CCCCN)C(=O)N[C@@H](Cc2ccc(O)cc2)C(=O)N[C@H](C(=O)N[C@@H](Cc2ccccc2)C(N)=O)C(C)C)NC(=O)[C@H](Cc2c[nH]c4ccccc24)NC(=O)[C@H](CCCNC(=N)N)NC(=O)[C@H](Cc2cnc[nH]2)NC(=O)[C@H]([C@@H](C)O)NC(=O)[C@H](CCCNC(=N)N)NC(=O)[C@H](CO)NC3=O)NC(=O)[C@H](CCCCN)NC(=O)[C@H](CC(=O)O)NC(=O)[C@H](CC(N)=O)NC(=O)[C@H](CC(=O)O)NC(=O)[C@@H]2CCCN2C1=O | 8 | > 10000 |
| CC[C@H](C)[C@@H]1NC(=O)[C@@H]2CSSC[C@@H]3NC(=O)[C@H](C(C)C)NC(=O)[C@H](CC(C)C)NC(=O)[C@H](CC(N)=O)NC(=O)[C@@H]4CCCN4C(=O)[C@H](CCCNC(=N)N)NC(=O)[C@H](CSSC[C@H](NC(=O)[C@@H](N)CC(=O)O)C(=O)N[C@@H](CC(C)C)C(=O)NCC(=O)N[C@@H](C)C(=O)N[C@@H](CC(C)C)C(=O)N[C@@H](CCCNC(=N)N)C(=O)N[C@@H](CCCCN)C(=O)N2)NC(=O)[C@H](CSSC[C@@H](C(=O)N[C@@H](CCCCN)C(=O)N[C@@H](Cc2ccc(O)cc2)C(=O)N[C@H](C(=O)N[C@@H](Cc2ccccc2)C(N)=O)C(C)C)NC(=O)[C@H](Cc2c[nH]c4ccccc24)NC(=O)[C@H](CCCCN)NC(=O)[C@H](Cc2cnc[nH]2)NC(=O)[C@H]([C@@H](C)O)NC(=O)[C@H](CCCNC(=N)N)NC(=O)[C@H](CO)NC3=O)NC(=O)[C@H](CCCCN)NC(=O)[C@H](CC(=O)O)NC(=O)[C@H](CC(N)=O)NC(=O)[C@H](CC(=O)O)NC(=O)[C@@H]2CCCN2C1=O | 28 | > 10000 |
| CC[C@H](C)[C@@H]1NC(=O)[C@@H]2CSSC[C@@H]3NC(=O)[C@H](C(C)C)NC(=O)[C@H](CC(C)C)NC(=O)[C@H](CC(N)=O)NC(=O)[C@@H]4CCCN4C(=O)[C@H](CCCNC(=N)N)NC(=O)[C@H](CSSC[C@H](NC(=O)[C@@H](N)CC(=O)O)C(=O)N[C@@H](CC(C)C)C(=O)NCC(=O)N[C@@H](C)C(=O)N[C@@H](Cc4ccccc4)C(=O)N[C@@H](CCCNC(=N)N)C(=O)N[C@@H](CCCCN)C(=O)N2)NC(=O)[C@H](CSSC[C@@H](C(=O)N[C@@H](CCCCN)C(=O)N[C@@H](Cc2ccc(O)cc2)C(=O)N[C@H](C(=O)N[C@@H](Cc2ccccc2)C(N)=O)C(C)C)NC(=O)[C@H](Cc2c[nH]c4ccccc24)NC(=O)[C@H](CCCCN)NC(=O)[C@H](Cc2cnc[nH]2)NC(=O)[C@H]([C@@H](C)O)NC(=O)[C@H](CCCNC(=N)N)NC(=O)[C@H](CO)NC3=O)NC(=O)[C@H](CCCCN)NC(=O)[C@H](CC(=O)O)NC(=O)[C@H](CC(N)=O)NC(=O)[C@H](CC(=O)O)NC(=O)[C@@H]2CCCN2C1=O | 13 | > 10000 |
